Antibody variant affinities, Ab-91 heavy chain, assay 2

Values reported by Engelhart et al. 2022, doi:10.1038/s41597-022-01779-4 (FLAb copy).

Binding partner: SARS-CoV-2 spike HR2 peptide, sequence PDVDLGDISGINAS.

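AAYL51 was designed without a model: most single CDR substitutions and a random sample of double and triple ones. The scFvs were displayed on barcoded MATa yeast, the peptide on MATalpha yeast. Mating (16 h, 30 °C) was followed by selection of diploids and sequencing of their barcodes. A regression on co-assayed BCL2-family reference pairs converts the normalised counts of each replicate to an apparent Kd. There are three technical replicates.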

Each scFv is VL, the linker GGGGSGGGGSGGGGS, VH, as in the parent Ab-91, and differs from it in the CDRs of the heavy chain only.
VL: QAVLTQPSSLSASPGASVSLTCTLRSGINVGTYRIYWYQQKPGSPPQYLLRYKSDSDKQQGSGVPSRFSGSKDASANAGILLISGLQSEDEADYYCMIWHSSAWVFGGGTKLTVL
VH: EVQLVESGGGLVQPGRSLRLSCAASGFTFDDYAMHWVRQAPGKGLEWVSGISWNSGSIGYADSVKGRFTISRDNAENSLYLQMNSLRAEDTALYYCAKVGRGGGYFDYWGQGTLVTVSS

Positions count from residue 1 of the parent VH; M34G puts G in place of M. Numbers give log10(Kd / nM), so 0 is 1 nM and 3 is 1 µM. Smaller is tighter. Averages over replicates are reported, and they cover detected replicates only. Where no diploid with the target was found in that replicate, the entry reads "ND": below detection, most likely a poor binder, though not proof of it.

| changes | log10 Kd, replicates | mean log10 Kd (nM) | empty controls |
|---|---|---|---|
| M34G H35M V64F | ND / ND / 2.32 | 2.32 | 0 of 9 |
| S52R S57C D62I | 3.83 / 5.66 / 4.54 | 4.68 | 6 of 9 (4.79) |
| G26Q M34W A61Q | 4.28 / ND / ND | 4.28 | 0 of 9 |
| D31F G50Q S52A | ND / ND / ND | ND | 0 of 9 |
| I51P G59D Y60V | ND / ND / ND | ND | 0 of 9 |
| I51H G103W | ND / 4.88 / 5.12 | 5.00 | 4 of 9 (4.78) |
| S55Y V64C Y105N | ND / ND / ND | ND | 1 of 9 (3.58) |
| M34G S57P Y60D | ND / ND / ND | ND | 0 of 9 |
| G56S A61T V99Y | 4.55 / 5.99 / 3.61 | 4.72 | 3 of 9 (3.79) |
| M34R G59Q Y105M | 4.70 / ND / ND | 4.70 | 3 of 9 (4.89) |
| A33E M34D H35Y | ND / ND / ND | ND | 0 of 9 |
| T28M I58E G100M | 3.49 / 3.48 / 3.27 | 3.42 | 4 of 9 (4.61) |
| G56A Y60P | ND / ND / ND | ND | 2 of 9 (4.37) |
| G26D M34W G56N | ND / ND / ND | ND | 0 of 9 |
| M34E G102F G103M | ND / ND / ND | ND | 0 of 9 |
| F29S Y60A S63M | 3.44 / ND / ND | 3.44 | 2 of 9 (4.46) |
| T28K V64S Y108L | ND / ND / ND | ND | 1 of 9 (2.62) |

The remaining entries, values ahead:

| log10 Kd, replicates | mean log10 Kd (nM) | empty controls | changes |
|---|---|---|---|
| ND / ND / ND | ND | 1 of 9 (6.05) | I51N A61I R101G |
| ND / ND / ND | ND | 1 of 9 (3.84) | D30E V64L V99C |
| ND / ND / ND | ND | 2 of 9 (4.28) | D62A G104P |
| ND / ND / ND | ND | 0 of 9 | A33V H35L V64H |
| 3.60 / ND / ND | 3.60 | 2 of 9 (3.88) | Y32G I51Y Y108F |
| 4.80 / 5.60 / 4.12 | 4.84 | 6 of 9 (4.75) | F27D G50Q R101L |
| ND / ND / ND | ND | 0 of 9 | A33H S63I Y105T |
| ND / ND / ND | ND | 0 of 9 | Y32G S55W G104E |
| ND / ND / ND | ND | 2 of 9 (3.46) | F27W D30M |
| 4.35 / 5.21 / 5.47 | 5.01 | 3 of 9 (5.53) | Y32F H35K V99F |
| ND / ND / ND | ND | 0 of 9 | I51T D62L V64E |
| ND / ND / ND | ND | 1 of 9 (3.83) | F29K D30P D62E |
| 1.06 / 1.03 / 0.94 | 1.01 | 3 of 9 (4.79) | D31M Y105F Y108L |
| 3.29 / 3.55 / 3.82 | 3.55 | 4 of 9 (4.93) | W53A S55H A61Q |
| ND / ND / ND | ND | 2 of 9 (4.23) | A33H Y60G G102L |
| 3.81 / 6.48 / ND | 5.14 | 6 of 9 (4.69) | G26H V64N F106E |
| ND / ND / ND | ND | 0 of 9 | T28N I51C G59W |

A selection of 4 entries from above:

changes	log10 Kd, replicates	mean log10 Kd (nM)	empty controls
I51H G103W	ND / 4.88 / 5.12	5.00	4 of 9 (4.78)
G26H V64N F106E	3.81 / 6.48 / ND	5.14	6 of 9 (4.69)
T28K V64S Y108L	ND / ND / ND	ND	1 of 9 (2.62)
Y32G I51Y Y108F	3.60 / ND / ND	3.60	2 of 9 (3.88)

In this assay the parent's reference entry averaged 1.86; its copy inside this library read 0.88. Nonspecific signal, from three strains lacking the peptide, appeared in 21% of pairings of library AAYL51, centred on 4.54 (5% of these signals below 3.26); values are not corrected for it. The control count says in how many pairings with the empty strains this scFv gave a signal, with their mean in brackets.